Literature values, collected in patent publication US20180055915A1, “COMPOSITIONS AND METHODS FOR TREATING PROSTATE CANCER” (UNIVERSITY OF ROCHESTER, priority 2016, published 2018).

Tested on: wild type AR, ARv7, AR-F876L
Settings: cited from earlier work

CNC(=O)c1ccc(N2C(=S)N(c3ccc(C#N)c(C(F)(F)F)c3)C(=O)C2(C)C)cc1F [Enz, 4-(3-(4-Cyano-3-(trifluoromethyl)phenyl)-5,5-dimethyl-4-oxo-2-thioxoimidazolidin-1-yl)-2-fluoro-N-methylbenzamide]
degradation of wild type AR, ARv7 and AR mutants including AR-F876L: not
